## scFv variants of Ab-14 (light chain) against a SARS-CoV-2 spike peptide

Data: MIT Lincoln Laboratory AlphaSeq set, Engelhart et al. 2022, doi:10.1038/s41597-022-01779-4, as distributed in FLAb.

The target is the same throughout: PDVDLGDISGINAS, from the HR2 region of SARS-CoV-2 spike.

Parent scFv Ab-14: VH joined to VL by a 15-residue (Gly4Ser)3 linker. Changes lie in the light chain CDRs alone.
VH: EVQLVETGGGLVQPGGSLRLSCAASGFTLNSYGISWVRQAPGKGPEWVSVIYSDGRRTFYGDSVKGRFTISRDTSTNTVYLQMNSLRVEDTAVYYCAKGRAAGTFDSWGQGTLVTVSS
VL: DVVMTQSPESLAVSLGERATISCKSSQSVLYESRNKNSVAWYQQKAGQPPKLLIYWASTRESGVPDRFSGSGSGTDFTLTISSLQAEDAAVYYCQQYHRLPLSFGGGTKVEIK

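The starting antibody came from a phage panning campaign against this peptide. The library (AAYL50) carries one to three amino acid substitutions per variant, with no insertions or deletions. In AlphaSeq, yeast of one mating type display the scFv and yeast of the other type display the target. After mating in shaken culture at 30 °C for 16 h, diploids were selected and their barcode pairs sequenced. A regression on co-assayed BCL2-family reference pairs converts the normalised counts of each replicate to an apparent Kd. Mating was done three times.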

The parent's light chain CDRs are KSSQSVLYESRNKNSVA, WASTRES, QQYHRLPLS; each variant's own CDRs replace them letter for letter. Values are log10 of the apparent Kd in nM; lower means stronger binding. The mean shown is taken over the replicates in which the pair was detected. A pair that was not seen in that replicate is written "nd"; this usually means weak binding, but a binder can also be missed. Parent in this assay: reference entry 0.65, copy in this library 1.68. Nonspecific signal, from three strains lacking the peptide, appeared in 18% of pairings of library AAYL50, centred on 4.19 (5% of these signals below 2.99); values are not corrected for it.

log10 Kd (nM) by replicate | mean log10 Kd (nM) | CDR-L1 | CDR-L2 | CDR-L3
0.85 / 1.11 / 1.06 | 1.01 | KSSQSVLGESRFKNSVA | WASNRES | QQYHRLPLS
0.86 / 1.14 / 1.15 | 1.05 | KFSQSVLYESRWKNSVA | WASTREG | QQYHRLPLS
5.26 / 5.25 / 2.94 | 4.48 | KSSQSVVYESRNKNSVA | WASTRCS | QQYPRLPLS
nd / nd / nd | nd | KSSQSVLYGSRNKNSVA | CASTRES | QQYHRLFLS
0.23 / 0.52 / 0.39 | 0.38 | KSGQSVDVESRNKNSVA | WASTRES | QQYHRLPLS
nd / 3.15 / nd | 3.15 | KSSQSVLYESRNKNSVK | WAETRES | QQYHRLPLR
nd / nd / nd | nd | KSSQSVLYESRNKNSVA | WASTRES | QQFARLPNS
4.22 / nd / 5.49 | 4.85 | KSSQSVLYESRNKNSVA | WASSRES | QGYHRLPLQ
nd / nd / nd | nd | KSSQSVLYESRNKNSVY | WASTRSQ | QQYHRLPLS
-0.04 / 0.32 / 0.09 | 0.12 | KASQSVSYESRNKNSVA | SASTRES | QQYHRLPLS
-1.09 / -0.61 / -0.97 | -0.89 | HSSPSVLYESRNKNSVA | NASTRES | QQYHRLPLS
3.18 / 3.17 / 3.23 | 3.19 | KSSQSVLYESRNKISVA | WASTRES | QQNARLPLS
nd / nd / nd | nd | KSSQSVLYESRNKNSVA | WRATRES | QQHHRLPLS
1.13 / 1.46 / 1.13 | 1.24 | KESQSHLYESRNKNSVA | WASTRES | QQYHRLPLS
0.09 / 0.53 / 0.14 | 0.25 | KSSQSVLYESGDKNSVA | WASTRES | QQYHRLPLS
4.40 / 5.09 / nd | 4.74 | KSSQVVLYESRNKNRVA | WASPRES | QQYHRLPLS
nd / nd / nd | nd | KSSQSVLYESRNKNSVR | WASTALS | QQYHRLPLS
nd / nd / nd | nd | KSSQSVLYESRNKNSVA | WASTRWS | QQYHRLPAH
3.67 / 2.57 / nd | 3.12 | KSSQSALYEKRNKNSVA | WASWRES | QQYHRLPLS
0.83 / nd / 1.09 | 0.96 | KSSQSVLYESRNKNSVA | LASTRNM | QQYHRLPLS
4.11 / nd / 2.98 | 3.54 | KSSQSVLYELRNKNSVA | WASTRES | QQHHRLPLS
2.97 / 2.84 / 3.38 | 3.07 | KSSQMVLYESRNKNSLA | WAATRES | QQYHRLPLS
nd / nd / nd | nd | KSSQSVLYESRNKNSVA | WASTRES | QQYHRESLH
nd / nd / nd | nd | KSSQSVLYESRNKNSVW | WASTWYS | QQYHRLPLS
1.10 / 1.08 / 0.89 | 1.02 | KSSQEVLYESRNRNSVA | WASTRNS | QQYHRLPLS
2.77 / 2.78 / 2.40 | 2.65 | KSSQSVLYESRNKNSVA | WASWRES | IEYHRLPLS
2.52 / nd / 3.72 | 3.12 | KSSQSVLYERRNSNSMA | WASTRES | QQYHRLPLS
nd / nd / nd | nd | KSVQIVLYESRNKNSVA | WYSTRES | QQYHRLPLS
nd / nd / nd | nd | KSSQSVLYESRNKNSVA | VASTREH | QQYHRLPLE
4.04 / 3.41 / 3.47 | 3.64 | KSSQSVLYESCNKNSVA | WASTIES | QQYHKLPLS
3.40 / 2.45 / 2.71 | 2.85 | KWSQSVLYESGNKNSVA | VASTRES | QQYHRLPLS
0.82 / 0.83 / 1.07 | 0.91 | KSSQSVLYEEMMKNSVA | WASTRES | QQYHRLPLS
0.87 / 1.02 / 1.02 | 0.97 | KSSQSVRMESRNKNSVA | WASTRES | QQYHRMPLS
2.83 / 2.61 / 2.78 | 2.74 | KSSQSVLYISRNKNSVA | WASTRES | QQYHALPLS
nd / nd / nd | nd | KSSQSVLYESRNKNSVN | QASTRES | QQYHRLNLS
3.17 / 2.81 / 2.63 | 2.87 | ESSQSVLYESRPKNSVA | WASTRES | QQYHRLELS
nd / nd / nd | nd | KSSQSVLYESRNKNSYA | VASTCES | QQYHRLPLS
1.04 / 0.95 / 1.22 | 1.07 | KSSQSVLYESRNKNSVA | WASQRAS | QQYHRLPLS
nd / nd / nd | nd | KSFQSVLYECRNKNSVA | WASTREW | QQYHRLPLS
nd / 2.28 / nd | 2.28 | KSSQSVLYESRNKNSVA | YASTRES | QQYHRDPLS
nd / nd / nd | nd | KSSQSVLYESRNKNSVA | WATTRES | QQYHAPPLS
3.79 / nd / nd | 3.79 | KPSQSVLYESFNKNSVA | WASTRES | QFYHRLPLS
1.26 / 1.61 / 1.68 | 1.51 | KSSQSVLYESRNKNSVA | WMSTRES | QQYKRLPLK
nd / nd / 4.14 | 4.14 | GSSQSVLYESRNKNSVA | WASARES | QQYKRLPLS
nd / nd / nd | nd | KSSQSVLLESRNKNSVA | WASTRES | SQYHRLPLS
0.03 / 0.50 / 0.41 | 0.31 | KSSQSVLRESFNKNSVA | WASTRES | NQYHRLPLS
4.72 / nd / nd | 4.72 | KSSQKVLYDSRNKNSVA | WASTRES | QQYHRWPLS
nd / nd / nd | nd | KSSQSVAYESRNKNSVA | WACTRES | QQYHRLPKS

6 of these entries, quoted again:

CDR-L1 | CDR-L2 | CDR-L3 | log10 Kd (nM) by replicate | mean log10 Kd (nM)
KSSQSVLYESRNKNSVW | WASTWYS | QQYHRLPLS | nd / nd / nd | nd
KSSQSVLYELRNKNSVA | WASTRES | QQHHRLPLS | 4.11 / nd / 2.98 | 3.54
KSSQSVLYESRNKNSVA | YASTRES | QQYHRDPLS | nd / 2.28 / nd | 2.28
GSSQSVLYESRNKNSVA | WASARES | QQYKRLPLS | nd / nd / 4.14 | 4.14
KSSQSVAYESRNKNSVA | WACTRES | QQYHRLPKS | nd / nd / nd | nd
KSVQIVLYESRNKNSVA | WYSTRES | QQYHRLPLS | nd / nd / nd | nd